Experimental findings from patent publication US5773423A (priority 1994, dated 1998) are described below.

Like-named read-outs stand apart in the source and are kept apart here. Where only a bound is given, the exact number is not on record here.

For the assay, the target named is T1, rat A3 receptor (Rattus norvegicus, UniProt P28647).
T1 sequence (P28647 1-320): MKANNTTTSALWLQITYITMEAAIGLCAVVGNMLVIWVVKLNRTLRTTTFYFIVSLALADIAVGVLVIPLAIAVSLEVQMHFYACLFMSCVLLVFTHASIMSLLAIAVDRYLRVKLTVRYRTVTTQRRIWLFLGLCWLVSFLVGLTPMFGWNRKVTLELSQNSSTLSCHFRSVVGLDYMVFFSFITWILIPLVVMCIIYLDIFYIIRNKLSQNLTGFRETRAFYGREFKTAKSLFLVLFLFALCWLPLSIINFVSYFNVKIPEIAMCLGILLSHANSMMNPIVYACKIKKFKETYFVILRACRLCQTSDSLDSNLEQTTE
In words: biochemical. Format: binding.

The mark [1] stands for this setting: CHO cells stably transfected with rat A3 cDNA, [125I]APNEA or [125I]AB-MECA, read-out: A3 affinity Ki.
Setting [2] is: read-out: A3 percent displacement.
Setting [3] is: at 100 μM, read-out: A3 percent displacement.

For orientation: Ki means the dissociation constant of the complex between target and ligand, obtained from inhibition or displacement. The IC50 is the concentration that inhibits the measured activity by half.

On to `CCNC(=O)[C@H]1O[C@@H](n2cnc3c(N[C@H](C)c4ccccc4)ncnc32)[C@H](O)[C@@H]1O` [Compound 55, N^6 -(R-phenylethyl)-NECA], for which, under setting [1], the Ki was 0.018 ± 0.004 µM. Still for that read-out and setting: to `CCNC(=O)[C@H]1O[C@@H](n2cnc3c(=N)n(Cc4ccccc4[N+](=O)[O-])cnc32)[C@H](O)[C@@H]1O` [Compound 38, N'-(2-nitrobenzyl)NECA] belongs 0.027 ± 0.005 µM. On to `Nc1ncnc2c1ncn2[C@H]1O[C@@H](CO)[C@H](O)[C@@H]1O` [Compound 68, β-L-adenosine], for which the inhibition at 100 µM under setting [2] is 9.5 ± 4.2%. For the setting “read-out: IC50 at A3 receptors”, the IC50 is over 100 µM.

With `Nc1ncnc2c1ncn2[C@H]1C[C@H](O)[C@@H](CO)O1` [Compound 70, 2'-deoxyadenosine, reference compound], the inhibition at 100 µM under setting [3] worked out at 28.3 ± 2.3%. Besides, the IC50 (read-out: IC50 at A3 receptors) is over 100 µM. With `CNC(=O)[C@H]1O[C@@H](n2cnc3c(NCc4cccc(N=C=S)c4)ncnc32)[C@H](O)[C@@H]1O` [N^6-(3-isothiocyanatobenzyl)adenosine-5'-N-methyluronamide], the “selectivity (in words)” value is given as “bind selectively to A3 receptors”. For the same compound, the Ki (A3 affinity Ki) is 0.01 µM. Consider `Cn1c(=O)[nH]c2ncn(C)c2c1=O` [Compound 104, 1,7-dimethylX], for which the inhibition at 100 µM under setting [3] turned out to be 15.5 ± 12.1%. The same measure, in the same setting: to `Nc1nc2c(ncn2[C@@H]2O[C@H](CO)[C@@H](O)[C@H]2O)c(=S)[nH]1` [Compound 88, 6-thioguanosine, reference compound] belongs 44.8 ± 18.1%. With `OC[C@H]1O[C@@H](n2cnc3c(NCCc4ccccc4)ncnc32)[C@H](O)[C@@H]1O` [Compound 8, N^6 -phenethyladenosine], under setting [1], the Ki came out at 0.24 ± 0.058 µM. Same read-out and setting: under `CCNC(=O)[C@H]1O[C@@H](n2cnc3c(NCc4ccc([N+](=O)[O-])cc4)ncnc32)[C@H](O)[C@@H]1O` [Compound 63, N^6-(4-nitrobenzyl)adenosine-5'-N-ethyluronamide] stands 0.009 ± 0.0013 µM. With `Nc1ncnc2c1ncn2[C@@H]1O[C@H](CO)C[C@H]1O` [Compound 72, 3'-deoxyadenosine, reference compound], the IC50 was over 100 µM. Besides, the inhibition at 100 µM under setting [3] amounted to 32.7 ± 2%.

For the compound `C[S+](CC[C@H](N)C(=O)O)C[C@H]1O[C@@H](n2cnc3c(N)ncnc32)[C@H](O)[C@@H]1O` (some centres unmarked) [Compound 77, S-adenosylmethionine], for the setting “A3 affinity Ki”, the Ki stood at 2.47 µM. Turning to `CCNC(=O)[C@H]1O[C@@H](n2cnc3c(NCc4ccc(OC)cc4)ncnc32)[C@H](O)[C@@H]1O` [Compound 67, N^6-(4-methoxybenzyl)adenosine-5'-N-ethyluronamide], the Ki under setting [1] was 0.011 ± 0.003 µM. Take `CCCCn1c(=O)c2c(ncn2[C@@H]2O[C@H](C(=O)N(C)C)[C@@H](O)[C@H]2O)n(CCCC)c1=O`: the “A3 affinity decrease vs N-methyl 1,3-di-n-butylxanthine-7-β-D-ribofuronamide” value came out at 1000 fold. With `CCCn1c(=S)[nH]c(=O)c2[nH]cnc21` [Compound 114, 2-thio-3-propylX, reference compound], the inhibition at 100 µM under setting [2] amounted to 27.7 ± 11.3%.

As for `O=c1[nH]c(=O)c2[nH]cnc2[nH]1` [Compound 98, xanthine], the inhibition at 100 µM under setting [2] turned out to be 14 ± 7.9%.

For `CCCCNc1nc2c(N)ncnc2n1[C@@H]1O[C@H](CO)[C@@H](O)[C@H]1O` [drawing 13 (2nd)], the Ki under setting [1] worked out at 100 µM. Consider `CCCn1c(=O)c2[nH]c(C3CCCC3)nc2n(CCC)c1=O` [Compound 130, 8-cyclopentyl-1,3-dipropylxanthine], for which, under setting [2], the inhibition at 10 µM came out at 18.7 ± 2.9%.

In the case of `Cn1cnc2c(=O)[nH]c(=O)n(C)c21` [Compound 107, 3,9-dimethylX, reference compound], the inhibition at 100 µM under setting [2] stood at 19 ± 6.8%. As to `O=C(NC1CC1)[C@H]1O[C@@H](n2cnc3c(NCc4ccccc4)ncnc32)[C@H](O)[C@@H]1O` [Compound 24, N^6-benzyladenosine-5'-N-cyclopropyluronamide], the “selectivity (in words)” value was “not selective”.

In the case of `O=S(=O)(O)CCNc1ncnc2c1ncn2[C@@H]1O[C@H](CO)[C@@H](O)[C@H]1O` [Compound 11, N^6-(2-sulfo)ethyladenosine], the Ki by setting is: under setting [1], 32.4 µM; (read-out: Ki at A3 receptors) 32.4 µM. As for `CN(C)c1ncnc2c1ncn2[C@@H]1O[C@H](CO)[C@@H](O)[C@H]1O` [Compound 9, N^6 -dimethyladenosine], the Ki was found to be 32.5 µM under setting [1] and 32.5 µM (read-out: Ki at A3 receptors). For the compound `Nc1[nH]c2ccccc2c2ncnc1-2` [Compound 94, imidazo[4,5-c]quinolin-4-amine], under setting [3], the inhibition at 100 µM was 32.6 ± 10.8%. Moreover, under “read-out: Ki at A3 receptors”, the Ki was at least 100 µM. `Cn1c(=O)c2c(nc(C3CCCCC3)n2C)n(C)c1=O` [Compound 131, 8-cyclohexylC]: under setting [2], the inhibition at 100 µM was determined as 35.2 ± 1.8%. As for `Nc1ccc(CCNc2ncnc3c2ncn3[C@@H]2O[C@H](CO)[C@@H](O)[C@H]2O)cc1` [APNEA, N^6-2-(4-aminophenyl)ethyladenosine, reference compound], the Ki (Table 2, [125I]AB-MECA, CHO/rat A3, read-out: Ki (A3)) came out at 0.116 ± 0.018 µM.

In the case of `COc1cc(OC)cc(C(CNc2ncnc3c2ncn3[C@@H]2O[C@H](CO)[C@@H](O)[C@H]2O)c2ccccc2C)c1` (some centres unmarked) [Compound 10, N^6-[2-(3,5-dimethoxyphenyl)-2-(2-methylphenyl)ethyl]adenosine], the Ki runs as follows: under setting [1], 3.57 µM; (read-out: Ki at A3 receptors) 3.57 µM. `Nc1nc2c(ncn2[C@@H]2O[C@H](CO)[C@@H](O)[C@H]2O)c(=O)[nH]1` [Compound 86, guanosine, reference compound]: the Ki is, setting by setting: under setting [1], 98.5 µM; (read-out: Ki at A3 receptors) 99 µM. For `CCCCn1c(=O)c2[nH]cnc2n(CCCC)c1=O` [Compound 109, 1,3-di-n-butyl-xanthine], the Ki under setting [1] stood at 143 µM and the Ki (read-out: Ki at A3 receptors) is 143 µM. With `OC[C@H]1O[C@@H](n2cnc3c(Nc4ccccc4)ncnc32)[C@H](O)[C@@H]1O` [Compound 6, N^6 -phenyladenosine], under setting [1], the Ki came to 0.802 ± 0.279 µM. As for `NCCNC(=O)[C@H]1O[C@@H](n2cnc3c(N)ncnc32)[C@H](O)[C@@H]1O` [Compound 25, 5'-N-aminoethylaminocarboxamidoadenosine], the “selectivity (in words)” value was “A3 -selective”. Moreover, the Ki (read-out: A3 affinity Ki) came to 14.7 µM. Turning to `Cn1c(=O)c2[nH]c(C3CCCC3)nc2n(C)c1=O` [Compound 128, 8-cyclopentylT], under setting [2], the inhibition at 100 µM came out at 38.7 ± 2.5%. The same measure, in the same setting: to `Cn1cnc2[nH]c(=O)[nH]c(=O)c21` [Compound 101, 7-methylX, reference compound] belongs 16.4 ± 9.6%. Regarding `CSC[C@H]1O[C@@H](n2cnc3c(N)ncnc32)[C@H](O)[C@@H]1O` [Compound 75, 5'-deoxy-5'-methylthioadenosine], the Ki under setting [1] was determined as 0.00142 µM. Consider `OC[C@H]1O[C@@H](n2cnc3c(O)ncnc32)[C@H](O)[C@@H]1O` [Compound 85, inosine, reference compound], for which the Ki is, setting by setting: under setting [1], 45.1 µM; (read-out: Ki at A3 receptors) 45 µM. Turning to `CCn1cnc2c(NC3CCCC3)ncnc21` [Compound 95, 9-ethyl-N^6 cyclopentyladenine], the inhibition at 100 µM under setting [3] came out at 30.4 ± 9.1%. In addition, the Ki (read-out: Ki at A3 receptors) was at least 100 µM. As to `CNC(=O)[C@H]1O[C@@H](n2cnc3c(=O)[nH]cnc32)[C@H](O)[C@@H]1O` [Compound 90, inosine-5'-N-methyluronamide], the Ki under setting [1] was found to be 6.22 µM. For `NC[C@H]1O[C@@H](n2cnc3c(N)ncnc32)[C@H](O)[C@@H]1O` [Compound 74, 5'-deoxy-5'-aminoadenosine], under setting [3], the inhibition at 100 µM amounted to 30.6 ± 2.2%. For the same compound, the IC50 (read-out: IC50 at A3 receptors) is over 100 µM.

Turning to `CC(C)(C)OC(=O)NCCNC(=O)[C@H]1O[C@@H](n2cnc3c(N)ncnc32)[C@H](O)[C@@H]1O` [Compound 26, 5'-N-boc-aminoethylaminocarboxamidoadenosine], the “selectivity (in words)” value was “A3 -selective”. Under setting [1], the Ki stood at 18 µM. On to `CN(Cc1ccccc1)c1ncnc2c1ncn2[C@@H]1O[C@H](CO)[C@@H](O)[C@H]1O` [Compound 30, N^6 -benzyl-N^6 -methyladenosine, reference compound], for which the inhibition at 100 µM under setting [2] worked out at 78.4 ± 4.6%. Consider `CCNC(=O)[C@H]1O[C@@H](n2cnc3c(NCc4cccc([N+](=O)[O-])c4)ncnc32)[C@H](O)[C@@H]1O` [Compound 62, N^6-(3-nitrobenzyl)-NECA], for which, under setting [1], the Ki is 0.0087 ± 0.0012 µM. Turning to `CCNC(=O)[C@H]1O[C@@H](n2cnc3c(=N)n(Cc4ccc([N+](=O)[O-])cc4)cnc32)[C@H](O)[C@@H]1O` [Compound 37], the Ki under setting [1] stood at 0.06 ± 0.003 µM. Take `CCNC(=O)[C@H]1O[C@@H](n2cnc3c(N)[n+]([O-])cnc32)[C@H](O)[C@@H]1O` [Compound 35, adenosine-5'-N-ethyluronamide-N^1-oxide]: the “selectivity (in words)” value is “not selective”. In addition, the Ki (read-out: Ki at A3 receptors) was 0.47 µM.

On to `CCNC(=O)[C@H]1O[C@@H](n2cnc3c(NCc4cccc(C)c4)ncnc32)[C@H](O)[C@@H]1O` [Compound 64, N^6-(3-methylbenzyl)-NECA], for which, under setting [1], the Ki turned out to be 0.0012 ± 0.0001 µM. With `CCCn1c(=O)c2[nH]c(-c3ccc(OCC(=O)NCCN)cc3)nc2n(CCC)c1=O` [Compound 133, 8-{4-[({[(2-aminoethyl)amino]carbonyl}methyl)oxy]phenyl}-1,3-dipropylxanthine], the inhibition at 100 µM under setting [2] is 7.1 ± 0.9%.

As to `Nc1c2ncn([C@@H]3O[C@H](CO)[C@@H](O)[C@H]3O)c2nc[n+]1[O-]` [Compound 34, adenosine-N^1 -oxide, reference compound], the Ki reads like this: under setting [1], 3.09 µM; (read-out: Ki at A3 receptors) 3.09 µM. On to `Nc1ccc(CCNc2ncnc3c2ncn3[C@@H]2O[C@H](CO)[C@@H](O)[C@H]2O)cc1I` [[^125 I]APNEA, [^125 I]N^6-2-(4-aminophenyl)ethyladenosine], for which the Kd (read-out: Kd from saturation of binding of [125I]APNEA, CHO/rat A3 membranes, Ki (A3) column of Table 2, footnote g) came out at 0.0155 µM.
